ChEMBL document CHEMBL1123259, “Probes for narcotic receptor mediated phenomena. 13. Potential irreversible narcotic antagonist-based ligands derived from 6,14-endo-ethenotetrahydronororipavine with 7-(methoxyfumaroyl)amino, (bromoacetyl)amino, or isothiocyanate electrophiles: chemistry, biochemistry, and pharmacology” (1986)

biological target: Opioid receptor (Rattus norvegicus, UniProt P33533+P34975+P33535); experiment: Displacement of [3H]dalamid ([D-Ala2,Met5] enkephalinamide) from opioid receptors of rat brain membrane

| SMILES | EC50 |
| --- | --- |
| C=CCN1CC[C@]23c4c5ccc(O)c4O[C@H]2C2(OC)C=C[C@@]3(C[C@@H]2N=S)[C@H]1C5.O=C(O)C(=O)O | 100 nM |
| C=CCN1CC[C@]23c4c5ccc(O)c4O[C@H]2C2(OC)C=C[C@@]3(C[C@@H]2N)[C@H]1C5.O=C(O)C(=O)O | 50 nM |
| C=CCN1CC[C@]23c4c5ccc(O)c4O[C@H]2C2(OC)C=C[C@@]3(C[C@@H]2NC(=O)CBr)[C@H]1C5.O=C(O)C(=O)O | 90 nM |
| C=CCN1CC[C@]23c4c5ccc(O)c4O[C@H]2C2(OC)C=C[C@@]3(C[C@@H]2NC(=O)/C=C/C(=O)OC)[C@H]1C5.O=C(O)C(=O)O | 90 nM |
